Screening data (PubChem BioAssay)
G9a block: inhibitors of human histone lysine methyltransferase G9a | 350,000 tested, 8.8% active | Q96KQ7 | G9a H3K9 monomethylation, AlphaScreen, 2 h | Potency, µM (top dose mostly 102 µM), for the others: top-dose activity, negative = inhibition, most hits filed as inhibitors; further: potency means the concentration at half of the fitted maximal effect; on the % scale 0 is the no-effect control and ±100 the full control effect; nearly all actives have a fitted effect of over 75% in size
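Signal arises when biotinylated H3K9 peptide, once monomethylated, bridges streptavidin donor and antibody-captured acceptor beads. Enzyme at 20 nM was preincubated 15 min with test compounds; peptide 500 nM and SAM 20 uM then reacted for 2 h.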
Sfp inh: inhibitors of Bacillus subtilis Sfp phosphopantetheinyl transferase; actives 3.5% (n = 310,000); Q9F4F7; Biochemical Sfp PPTase activity, qHTS; Potency, µM, for the others: max response, negative = inhibition, hits mostly inhibitors; active = well fitted inhibition curve with a large enough effect; inconclusive = small, poorly fitted or top-dose-only effect, or another doubt; inactive = no such curve, though single readings can be large or run the other way;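 also: the enzyme is Sfp with the accession as filed and its product quenches rhodamine fluorescence; potency is read from the fitted curve at half-maximal effect; 0% = enzyme reaction without inhibitor and -100% = no enzyme wells; top concentration of the series not given in the record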
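With Hepes-Na pH 7.6 buffer containing 10 mM MgCl2, Sfp (15 nM) modified BHQ-2-YbbR (12.5 uM) using rhodamine-CoA (5 uM). Two reads 30 minutes apart at 525/598 nm yielded each well's rate.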
KDM4E inh: blocks human JMJD2E demethylase activity; 230,000 tested, 1.6% active; JMJD2E catalytic domain, FDH-coupled NADH fluorescence (FDH is formaldehyde dehydrogenase); B2RXH2; AID 2147; Potency, µM (highest dose often 57.1 µM), inactives show at the top dose activity change, negative = inhibition, most hits filed as inhibitors; active means well fitted inhibition curve with a large enough effect, not every such curve was filed as active; inconclusive means small, poorly fitted or top-dose-only effect, or another doubt; inactive means no such curve, though single readings can be large or run the other way;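 further: potency means the concentration at half of the fitted maximal effect; 0% = wells with enzyme and -100% = buffer wells without enzyme; nearly all actives have a fitted effect of over 50% in size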
LMNA splice mod: LMNA splicing modulation; HeLa LMNA splicing GFP/RFP minigene ratio, 48 h; Potency, µM (highest dose often 46.1 µM), without a hit: top-dose ratio change, negative = inhibition, hits mostly inhibitors; 200,000 tested, 0.01% active; AID 1487; active means well fitted inhibition curve with a large enough effect in the signal ratio, with a control signal flat, not every such curve was filed as active; inconclusive means small, poorly fitted or top-dose-only effect, or effect the other way, or a change in a side signal; the % refers to the signal ratio; further: potency means the concentration at half of the fitted maximal effect; on the % scale 0 is the no-effect control and ±100 the full control effect
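S3 HeLa stable clones carrying a lamin A-EGFP splicing minigene plus DsRed2 were seeded at 600 cells/well in Opti-MEM with 2% FBS, pin-dosed and incubated 48 h at 37°C. Acumen cytometry (488 nm) gave the GFP/RFP total-intensity ratio.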
ALDH1A1 block: inhibitors of human aldehyde dehydrogenase 1A1; P00352; Purified ALDH1A1, NADH fluorescence, propionaldehyde substrate; Potency, µM (doses to about 75.3 µM), inactives show top-dose activity, negative = inhibition, hits mostly inhibitors; 220,000 tested, 7.3% active; active means well fitted inhibition curve with a large enough effect, not every such curve was filed as active; inconclusive means small, poorly fitted or top-dose-only effect, or another doubt; inactive means no such curve, though single readings can be large or run the other way;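 further: potency means the concentration at half of the fitted maximal effect; plate controls were no enzyme wells and a reference inhibitor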
miR-21 reporter: raises the signal of a miR-21 reporter | HeLa miR-21 FLuc reporter, luciferase, 48 h | Potency, µM (highest dose often 38.3 µM), inactives show at the highest dose reporter change, positive = more light | 340,000 tested, under 10 active | AID 2288; active = well fitted rising curve with a large enough effect; inconclusive = small, poorly fitted or top-dose-only effect; inactive = no such curve, though single readings can be large or run the other way;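 note: % of control where 0% means no effect; miR-21 action dims this reporter so a rising signal means less miR-21 action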
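HeLa cells endogenously expressing miR-21, stably carrying CMV-driven firefly luciferase with a downstream miR-21 binding site, 2000 cells/well. Titrations up to approximately 40 uM, 48 hours; luciferase luminescence read.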
Active calls of the source: *; ? = inconclusive; · = not tested or not shown; ! = repeats disagree; [ ] = dose if it differs, or a comment. Compounds with a hit are over-represented: about 13% of the library has one in this group of screens. Unless noted, the call rests on the fitted dose curve; in most records, active means well fitted curve in the direction sought with a large enough effect; inconclusive means small, poorly fitted or top-dose-only effect, or another doubt; inactive means no such curve, though single readings can be large; an effect the other way counts as inactive or inconclusive.

smiles | Sfp inh | miR-21 reporter | ALDH1A1 block | LMNA splice mod | KDM4E inh | G9a block
CCCc1cc(C(=O)NNC(=S)NCC2CCCO2)cs1 (stereo unspecified) | 7% | -21% | -3% | -9% | -6% | 5%[59 µM]
CCc1cc(C(=O)NNC(=S)Nc2cccc(C)c2)cs1 | 9% | -85% | ? | -9% | 29% | 10µM*
CCCc1cc(C(=O)NNC(=S)NC(C)c2ccccc2)cs1 (stereo unspecified) | 10% | 18% | -5% | -14% | 3% | 50µM*
Cc1cccc(NC(=S)NNC(=O)c2sccc2C)c1 | 3% | -51% | ? | 11% | 7% | ?
COC(C(=O)C(O)C(C)O)C1Cc2cc3cc(OC4CC(OC5CC(O)C(O)C(C)O5)C(O)C(C)O4)c(C)c(O)c3c(O)c2C(=O)C1OC1CC(OC2CC(OC3CC(C)(O)C(O)C(C)O3)C(O)C(C)O2)C(O)C(C)O1 (stereo unspecified) | 1% | · | · | · | · | -29%[12.7 µM]
CCn1c(=O)c(C(=O)CN2c3ccccc3CC2C)c(N)n(Cc2ccccc2)c1=O (stereo unspecified) | 7% | 3% | ? | -27% | -15% | 22µM*
CCn1c(=O)c(C(=O)CN(C)Cc2cccc(OC)c2OC)c(N)n(Cc2ccccc2)c1=O | 63µM* | -3% | ? | 7% | ? | 25µM*
CCn1c(=O)c(C(=O)CN2CCN(S(=O)(=O)c3ccc(C)cc3C)CC2)c(N)n(Cc2ccccc2)c1=O | 15% | 19% | 5% | ? | -1% | 45µM*
Cn1c(=O)c(C(=O)CN2CCCCCC2)c(N)n(Cc2ccccc2)c1=O | -3% | -3% | ? | -5%[46 µM] | 2% | ?
CC1Cc2ccccc2N1CC(=O)c1c(N)n(Cc2ccccc2)c(=O)n(C)c1=O (stereo unspecified) | 6% | 9% | -7% | -4% | -2% | 40µM*
Cc1ccc(Cn2c(SCC(=O)NCc3ccccc3Cl)nc3ccsc3c2=O)cc1 | · | 0% | · | 13%[46 µM] | · | -8%[59 µM]
CCOC(=O)N1CCC(c2[nH][nH]c(=O)c2C)CC1 | -1% | -1% | -5% | 4% | -5% | 40µM*
Cn1c(/N=C/c2ccccc2[N+](=O)[O-])nc2ccccc21 | ? | 1% | · | · | · | 79µM*
Cn1c(/N=C/c2cccs2)nc2ccccc21 | 18% | 0% | 15% | -1% | 5% | 2%[12.7 µM]
O=C(/C=C/c1cccs1)N1CCN(c2ccc(O)cc2)CC1 | 45µM* | -4% | ? | ? | ? | 7.9µM*
CN1CCN(S(=O)(=O)c2cccs2)CC1 | 12% | -2% | 3% | 13%[46 µM] | 6% | 6%
O=S(=O)(c1cccs1)N1CCN(c2ccc(O)cc2)CC1 | ? | 7% | · | · | -10% | 35µM*
CC(C)OCCCNC(=O)C(=O)Nc1c2c(nn1-c1ccccc1)CS(=O)(=O)C2 | · | -2% | · | ? | · | ?
O=C(COC(=O)Cn1cc(C(F)(F)F)ccc1=O)NCc1ccccc1 | · | · | · | · | · | -19%
COC(=O)c1ccc(C(=O)OC)c(NC(=O)N2CC3CCCN3c3ccccc32)c1 (stereo unspecified) | · | 0% | · | · | · | 14µM*
O=C(NCc1ccc(Cl)cc1)c1ccc(NC(=O)N2CC3CCCN3c3ccccc32)cc1 (stereo unspecified) | · | 13% | · | · | · | 10µM*
COC(=O)c1ccc(C(=O)OC)c(NC(=O)N2c3ccccc3Sc3ccccc32)c1 | -4% | -10% | -3% | -6% | ? | 8%[59 µM]
O=C1NCC2=C1C(c1ccc(Br)cc1)Nc1ccccc1N2 (stereo unspecified) | -1% | -52% | 13% | -1% | -2% | 45µM*
CCCCc1nn2c(=O)cc(COC(=O)c3cccs3)nc2s1 | · | -21% | · | ? | · | 6%[59 µM]
Cc1ccc(-n2c(SCC(=O)c3c(N)n(C)c(=O)n(C)c3=O)nc3sc4c(c3c2=O)CCCC4)c(C)c1 | 56µM* | -4% | 1% | ? | -3% | ?
CCCCN1C(C(=O)Nc2ncccn2)=C(O)c2ccccc2S1(=O)=O | -9% | -3% | · | · | · | 28µM*
Nc1ccc(S(=O)(=O)Nc2nc3ccccc3o2)cc1 | 50µM* | -3% | · | · | · | ·
Nc1ccc(S(=O)(=O)Nc2cnc3ccccc3n2)cc1 | 9% | -5% | 4%[13.5 µM] | ? | 3% | 7%[59 µM]
O=C(Nc1ccccc1Cl)Nc1ccccc1Cl | 26% | -16% | · | · | 1% | ·
O=C(Nc1ccccc1Cl)c1ccccc1 | 9% | -46% | 4% | -1%[9.22 µM] | 15% | -8%
O=C(Nc1ccc(Nc2ccccc2)cc1)Nc1ccccc1Cl | 11% | -44% | -8% | · | ? | 7.9µM*
O=C(Nc1ccccc1)Nc1csc2ccccc12 | 50µM* | -10% | · | · | 3% | 4%
O=C(Nc1ccc(Cl)cc1)C(Cl)C(=O)c1ccccc1 (stereo unspecified) | 28µM* | 0% | · | · | · | 11µM*
O=C(Nc1ccccc1Cl)C(Cl)C(=O)c1ccccc1 (stereo unspecified) | 13% | -1% | 1.8µM* | · | 3% | 40µM*
O=C(Nc1ccc(Oc2ccc(C(=O)O)c(C(=O)O)c2)cc1)c1cccs1 | 3% | 5% | 1% | ? | -8% | ·
Cc1cc(C)c(C(=O)Nc2ccc(Br)c(C(F)(F)F)c2)c(C)c1 | 10% | 10% | -16% | ? | -4% | 2%[59 µM]
O=C(CCC(=O)N1CCSc2ccccc21)NC1CCCCC1 | 7% | -3% | · | · | · | 8%
O=C(NCC1CCCO1)C1CCCN(S(=O)(=O)c2cc(Cl)ccc2Cl)C1 (stereo unspecified) | 21% | 4% | · | · | · | 62%
CCCCCC1CCC(C(=O)NCCN2CCOCC2)CC1 (stereo unspecified) | -8% | -4% | · | · | · | ?
O=C(CSc1nc(-c2ccccc2)nc2c1Cc1ccccc1O2)Nc1ccccc1 | 15% | -1% | 11% | 2% | 4% | 8%
O=C(CSc1nc(-c2ccccc2)nc2ccc(F)cc12)Nc1ccc(C(=O)O)cc1 | -3% | -3% | 13% | -26%[46 µM] | -9% | 45µM*
COc1ccc(-c2nc3c(c(SCC(=O)Nc4cccc(O)c4)n2)Cc2c(CO)cnc(C)c2O3)cc1 | -7% | -11% | · | · | · | 11µM*!
O=C(CSc1nc(-c2ccccc2)nc2ccc(F)cc12)Nc1cccc(C(=O)O)c1 | -7% | 2% | · | · | -6% | 71µM*
O=C(CSc1nc(-c2ccc(F)cc2)nc2c1Cc1ccccc1O2)Nc1cccc(C(=O)O)c1 | -21% | -3% | 11% | 7%[46 µM] | -6% | 7.9µM*
COc1ccccc1C(=O)Nc1nnc(SCc2cc(=O)c3cc(Cl)ccc3[nH]2)s1 | · | 0% | · | ? | · | -3%[59 µM]

A different layout for four compounds above.
Molecule: COc1ccc(-c2nc3c(c(SCC(=O)Nc4cccc(O)c4)n2)Cc2c(CO)cnc(C)c2O3)cc1
- Sfp inh = -7%
- miR-21 reporter = -11%
- ALDH1A1 block = ·
- LMNA splice mod = ·
- KDM4E inh = ·
- G9a block = 11µM*!

Molecule: O=C(Nc1ccccc1Cl)C(Cl)C(=O)c1ccccc1 (stereo unspecified)
- Sfp inh = 13%
- miR-21 reporter = -1%
- ALDH1A1 block = 1.8µM*
- LMNA splice mod = ·
- KDM4E inh = 3%
- G9a block = 40µM*

Molecule: O=C(Nc1ccc(Nc2ccccc2)cc1)Nc1ccccc1Cl
- Sfp inh = 11%
- miR-21 reporter = -44%
- ALDH1A1 block = -8%
- LMNA splice mod = ·
- KDM4E inh = ?
- G9a block = 7.9µM*

Molecule: CCCCCC1CCC(C(=O)NCCN2CCOCC2)CC1 (stereo unspecified)
- Sfp inh = -8%
- miR-21 reporter = -4%
- ALDH1A1 block = ·
- LMNA splice mod = ·
- KDM4E inh = ·
- G9a block = ?
